# Test results published in patent US20080207927A1, “PROCESS FOR THE PRODUCTION OF GLYCEROL ACETALS” (priority 2006, published 2008).
# Assay: Solubility in soybean oil fatty acid methyl ester
# Assay type: physicochemical
substance,measurement,value
glycerol acetal of isobutyraldehyde [Example 1],Solubility in soybean oil fatty acid methyl ester,>50%
